In data set [1] the target is T1, Serine/threonine-protein phosphatase 5 (Homo sapiens) (UniProt P53041).
T1 sequence (whole entry): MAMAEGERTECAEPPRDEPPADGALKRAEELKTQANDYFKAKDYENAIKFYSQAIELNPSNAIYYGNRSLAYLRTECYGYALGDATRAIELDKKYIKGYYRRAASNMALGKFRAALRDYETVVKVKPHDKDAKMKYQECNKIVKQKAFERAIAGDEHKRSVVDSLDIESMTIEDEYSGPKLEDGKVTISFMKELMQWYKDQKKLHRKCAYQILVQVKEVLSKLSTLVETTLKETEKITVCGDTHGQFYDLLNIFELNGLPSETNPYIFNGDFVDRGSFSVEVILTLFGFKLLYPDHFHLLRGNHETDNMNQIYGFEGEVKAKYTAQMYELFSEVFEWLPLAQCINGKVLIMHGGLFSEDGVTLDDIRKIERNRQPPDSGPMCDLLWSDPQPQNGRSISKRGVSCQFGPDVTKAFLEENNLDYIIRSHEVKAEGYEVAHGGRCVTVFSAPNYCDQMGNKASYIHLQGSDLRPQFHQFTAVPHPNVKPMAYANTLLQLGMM
Description: Activation of His-tagged human PP5 extracted from Escherichia coli BL21 using pNPP as substrate assessed as fold change in maximum activation at 0.1 to 1000 uM incubated for 30 mins by spectrophotometric analysis. The settings on record: filed as activator, dose 0.1-1000 µM.

Substrate in data set [2]: N=c1oc2cc(F)cc(F)c2cc1C(N)=S
As to the kind of experiment: Binding affinity to His-tagged human PP5 extracted from Escherichia coli BL21 using pNPP as substrate assessed as Vmax at 60 uM preincubated for 30 mins followed by substrate addition and measured after 10 mins. The settings on record: filed as activator, time 40.0 min.

In the case of `N=c1oc2cc(F)cc(F)c2cc1C(N)=S`, the fold change (FC) in data set [1] was found to be 4.3.

B1: Serine/threonine-protein phosphatase 5 (Homo sapiens), P53041 (protein)
chain: T1 sequence (whole entry)
With B1, the Vmax in data set [2] worked out at 5.59 µM/min.

By Vmax is commonly meant the rate approached at saturating substrate.
